SMILES strings stand for the structures. Read-outs that look alike come from different tables or passages of the source.

This data set in a line: in vivo. The following applies: mouse, single dose, fasted mice, mortality up to 72 hours.

Turning to `COc1ccc2c(c1)c(CC(=O)O)c(C)n2C(=O)C=Cc1ccccc1` [Cinmetacin, N-cinnamoyl-2-methyl-5-methoxy-3-indoleacetic acid], the LD50 at 72 h is, setting by setting: (ip, into the abdominal cavity, read-out: LD50 Abdominal administration) 495 mg/kg; (oral, read-out: LD50 Oral administration) 820 mg/kg.

Source of the values: patent US5747521A, “N-cinnamoyl-2-methyl-5-methoxy-3-indoleacetic acid ester, and pharmaceutical preparation containing the same” (priority 1992, dated 1998).
